Experimental data: patent US9132097B2, “Nanoparticles stabilized with nitrophenylboronic acid compositions” (California Institute of Technology, priority 2013, dated 2015)

What was measured:
MCF-7 = experiment: Cytotoxicity assay (CellTiter 96 AQueous One) in MCF-7; assay type: cell-based; settings: concentrations of up to 0.5 μM
MDA-MB-231 = experiment: Cytotoxicity assay (CellTiter 96 AQueous One) in MDA-MB-231; assay type: cell-based; settings: concentrations of up to 0.5 μM
BT-474 xenograft tumors = settings: Herceptin 2.9 mg/kg i.v. once per week for 2 weeks
Method: Treatments began on day 1. […] All treatments were freshly prepared and given via intravenous tail vein injection. Injections were standardized at 150 μl per 20 g body weight of mice. […] Tumor sizes were recorded three times a week using caliper measurements (length×width2/2) and health of the animals was continuously monitored. Animals were euthanized when tumor volumes exceeded 1000 mm^3. Six weeks after beginning of the treatment, animals were euthanized by CO2 asphyxiation.

[1] = Zeta potential measurement; assay type: physicochemical; settings: without PEG or with the labelled PEG compound (Herceptin conjugate at 0.25 mol %)

## Herceptin: human IgG1 antibody (Herceptin®)
MCF-7
  Effects on HER2− cell line: no effects
MDA-MB-231
  Effects on HER2− cell line: no effects
BT-474 xenograft tumors
  Tumor result compared to control group: significant compared to control group
BT-474 xenograft tumors; Nbegin 6
  NNTRD (number of non-treatment related death): 0/0/0
  NTRD (number of treatment related death): 0/0/0
  Nend (number of animals surviving to end of study): 6/6
  Neuthan (number of animals euthanized due to exceeding tumor size limit of 1000 mm^3): 0/0/0

## IgG (Herceptin®) conjugated nitroPBA-PEG: Herceptin conjugated by EDC coupling to on average 1 to 2 nitroPBA-PEG-CO2H
[1]
  Zeta potential of MAP-4/siRNA particle: remained similar
